From ChEMBL document CHEMBL3875191, “Enhanced potency of bivalent small molecule gp41 inhibitors” (Bioorg Med Chem, 2017)

How the values were obtained:
[1] = tested on: Human immunodeficiency virus 1
HL2/3 = test: Inhibition of HIV1 gp41-induced cell-cell fusion between HXB2 viral envelope expressing human HL2/3 cells to CXCR4-tropic expressing TZM-bl cells after 6 hrs by LTR luciferase reporter gene assay; assay type: cell-based; settings: Human immunodeficiency virus 1
Method in brief: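 TZM-bl target cells (CD4, CCR5, CXCR4; HIV-1 LTR-driven firefly luciferase) at 25,000/well, cultured overnight, then given serially diluted inhibitor. 50,000 HL2/3 effector cells (HXB2 Env, Tat, Rev) were added and fusion ran 6 h in reduced-serum medium with 1% DMSO final. Luciferase was read, with 1% DMSO controls with and without HL2/3, in triplicate.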

[2] = tested on: Human immunodeficiency virus 1; remark: listed apart in the source
[3] = tested on: Human immunodeficiency virus 1; remark: listed apart in the source
[4] = Inhibition of fluorescently labeled C-terminal HR2 probe peptide binding to wild type HIV-1 Fe(env2.0)3 peptide model of gp41 hydrophobic pocket assessed as inhibition constant for first binding interaction at compound to protein ratio of 1:2 by fluorescence assay; set-up: species or system Human immunodeficiency virus 1
MAGI [5] = test: (§1) Inhibition of HIV1 3B gp41-induced virus-cell fusion between HIV1 3B to MAGI cells expressing CXCR4-tropic treated 3 hrs post infection measured after 48 hrs by beta-galactosidase based chemiluminescence assay; settings: Human immunodeficiency virus 1
[6] = (§2) Inhibition of HIV1 Ba-L gp41-induced virus-cell fusion between HIV1 Ba-L to MAGI cells expressing CCR5-tropic treated 3 hrs post infection measured after 48 hrs by beta-galactosidase based chemiluminescence assay; settings: Human immunodeficiency virus 1, Ba-L
MAGI [7] = test: as §2; settings: Human immunodeficiency virus 1
[8] = Inhibition of fluorescently labeled C-terminal HR2 probe peptide binding to wild type HIV-1 Fe(env2.0)3 peptide model of gp41 hydrophobic pocket assessed as inhibition constant for second binding interaction at compound to protein ratio of 1:2 by fluorescence assay; set-up: species or system Human immunodeficiency virus 1
[9] = as §1; settings: Human immunodeficiency virus 1, 3B

SMILES | Ka [1] [×10⁴ /M/s] | IC90 (HL2/3) [µM] | Ka [2] [×10⁻⁵ /RU/s] | Ka [3] [M⁻¹ s⁻¹] | Ki [4] [µM] | IC90 (MAGI [5]) [µM] | IC50 [6] [µM] | IC90 (MAGI [7]) [µM] | Ki [8] [µM] | IC50 [9] [µM]
Nc1ccc(C(=O)N[C@@H](Cc2c[nH]c3ccccc23)C(=O)O)cc1OCCc1c[nH]c2ccccc12 | 5.1 | – | – | – | – | – | – | – | – | –
O=C(CCC(=O)Nc1ccc(C(=O)N[C@@H](Cc2c[nH]c3ccccc23)C(=O)O)cc1OCCc1c[nH]c2ccccc12)NCCOCCOCCOCCNC(=O)CCC(=O)Nc1ccc(C(=O)N[C@@H](Cc2c[nH]c3ccccc23)C(=O)O)cc1OCCc1c[nH]c2ccccc12 | 0.37 | 6.3 | 4.54 | 2690 | – | – | – | – | – | –
O=C(CCc1c[nH]c2ccccc12)NCCCCCC(=O)Nc1ccc(C(=O)N[C@@H](Cc2c[nH]c3ccccc23)C(=O)O)cc1OCc1ccc(Cl)cc1 | 1.37 | 5.6 | – | – | – | – | – | – | – | –
O=C(CCC(=O)Nc1ccc(C(=O)N[C@@H](Cc2c[nH]c3ccccc23)C(=O)O)cc1OCc1ccc(Cl)cc1)NCCOCCOCCOCCNC(=O)CCC(=O)Nc1ccc(C(=O)N[C@@H](Cc2c[nH]c3ccccc23)C(=O)O)cc1OCc1ccc(Cl)cc1 | 0.18 | 4.4 | 2.27 | 1490 | 21 | 20.8 | 4.7 | 18.3 | 1.3 | –
Nc1ccc(C(=O)N[C@@H](Cc2c[nH]c3ccccc23)C(=O)O)cc1OCc1ccc(Cl)cc1 | 6.7 | 49 | – | – | – | > 50 | > 50 | > 50 | – | > 50
O=C(CCc1c[nH]c2ccccc12)NCCCCCC(=O)Nc1ccc(C(=O)N[C@@H](Cc2c[nH]c3ccccc23)C(=O)O)cc1OCCc1c[nH]c2ccccc12 | 1.1 | 15.1 | – | – | – | – | – | – | – | –
